# In ChEMBL document CHEMBL1145378 (J Med Chem, 2007):
# The chains behind the UniProt entries cited, without tags or fusion partners. Where a name states a change or a piece, a line headed by the entry shows the natural chain unless it says otherwise.
# UniProt Q12809: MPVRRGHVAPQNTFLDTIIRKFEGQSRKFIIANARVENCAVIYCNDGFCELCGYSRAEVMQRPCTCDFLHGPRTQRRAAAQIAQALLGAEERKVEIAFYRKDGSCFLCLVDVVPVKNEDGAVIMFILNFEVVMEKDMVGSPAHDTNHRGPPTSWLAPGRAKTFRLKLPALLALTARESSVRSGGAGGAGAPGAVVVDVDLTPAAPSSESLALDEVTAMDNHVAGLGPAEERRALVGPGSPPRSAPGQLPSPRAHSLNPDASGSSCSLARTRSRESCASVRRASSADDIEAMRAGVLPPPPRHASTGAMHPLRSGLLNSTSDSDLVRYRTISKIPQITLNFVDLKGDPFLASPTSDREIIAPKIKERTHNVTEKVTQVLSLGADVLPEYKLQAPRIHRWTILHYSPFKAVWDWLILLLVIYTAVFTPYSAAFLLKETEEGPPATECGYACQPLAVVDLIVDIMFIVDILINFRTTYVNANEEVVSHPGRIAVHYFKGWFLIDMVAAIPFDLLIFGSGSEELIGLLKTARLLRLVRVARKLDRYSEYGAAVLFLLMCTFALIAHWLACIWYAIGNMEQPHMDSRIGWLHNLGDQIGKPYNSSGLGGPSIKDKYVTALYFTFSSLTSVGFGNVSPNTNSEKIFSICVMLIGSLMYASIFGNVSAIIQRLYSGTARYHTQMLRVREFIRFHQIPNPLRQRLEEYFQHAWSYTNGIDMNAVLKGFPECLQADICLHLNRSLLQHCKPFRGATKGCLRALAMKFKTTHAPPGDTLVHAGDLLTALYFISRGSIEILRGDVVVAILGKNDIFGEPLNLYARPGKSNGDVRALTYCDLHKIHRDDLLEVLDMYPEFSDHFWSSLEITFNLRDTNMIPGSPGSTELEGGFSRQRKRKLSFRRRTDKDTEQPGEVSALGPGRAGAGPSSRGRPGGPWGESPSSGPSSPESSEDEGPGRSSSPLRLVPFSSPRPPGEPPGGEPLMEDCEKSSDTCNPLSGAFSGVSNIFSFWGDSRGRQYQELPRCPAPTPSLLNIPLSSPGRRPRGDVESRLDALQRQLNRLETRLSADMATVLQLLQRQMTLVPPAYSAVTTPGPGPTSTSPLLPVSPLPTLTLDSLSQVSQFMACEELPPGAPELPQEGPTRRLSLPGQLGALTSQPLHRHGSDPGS
# Tests used:
# [1] = biological target: hERG (KCNH2) (Homo sapiens, UniProt Q12809); test: in vitro; conditions: hek293
# [2] = biological target: T1, Voltage-gated inwardly rectifying potassium channel KCNH2 (Homo sapiens, UniProt Q12809)
# [3] = biological target: T1, Voltage-gated inwardly rectifying potassium channel KCNH2; remark: listed apart in the source
structure (smiles),measurement,setting,value
CC(C)COCC(CN(Cc1ccccc1)c1ccccc1)N1CCCC1 (stereo not drawn) [BEPRIDIL],selectivity ratio,[1],1.6
same,Ki,[2],0.184 µM
same,Ki,[3],0.291 µM
